Results taken from patent CN115975031A.

Molecular target: 表皮生长因子受体 (EGFR), on DiFi human colorectal cancer cells (human) (UniProt P00533)
Assay: cell-based or functional assay

With “重组抗EGFR单克隆抗体的酸性组分 (HPLC-CEX保留时间小于10min的组分) (antibody)” the 生物活性 (DiFi细胞增殖抑制实验, CCK-8, OD450), 相对标准品Erbitux150819 (% of standard Erbitux150819) was 30.
